Our source for the Ki values is ChEMBL document CHEMBL3351265, “Astemizole arrests the proliferation of cancer cells by disrupting the EZH2-EED interaction of polycomb repressive complex 2” (J Med Chem, 2014).

Chains of the proteins cited; added tags and fusions are not shown.
UniProt O75530, whole entry: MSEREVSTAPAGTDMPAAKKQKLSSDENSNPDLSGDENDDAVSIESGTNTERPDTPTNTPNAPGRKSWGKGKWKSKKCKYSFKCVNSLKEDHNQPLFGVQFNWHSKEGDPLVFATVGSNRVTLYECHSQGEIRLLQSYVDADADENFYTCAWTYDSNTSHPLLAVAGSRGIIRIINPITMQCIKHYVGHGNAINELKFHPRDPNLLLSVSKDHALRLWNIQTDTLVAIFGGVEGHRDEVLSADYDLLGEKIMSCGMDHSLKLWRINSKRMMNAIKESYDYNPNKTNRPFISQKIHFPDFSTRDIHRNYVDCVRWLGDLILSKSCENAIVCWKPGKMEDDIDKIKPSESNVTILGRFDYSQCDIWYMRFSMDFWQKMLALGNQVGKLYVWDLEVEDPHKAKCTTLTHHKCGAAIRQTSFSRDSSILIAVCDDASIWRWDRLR

For this test, the target named is Polycomb protein EED (Homo sapiens, UniProt O75530). Briefly: Displacement of FITC-labeled EZH2 peptide from recombinant N-terminal 6His-tagged EED (residues 81 to 441) (unknown origin) expressed in Escherichia coli strain BL21 (DE3) after 1 hr by fluorescence polarization assay.

For `COc1ccc(CCN2CCC(Nc3nc4ccccc4n3Cc3ccc(F)cc3)CC2)cc1` [ASTEMIZOLE], the Ki was 23 µM.
